The assay addresses hPK-M2 (Homo sapiens, UniProt P14618). The assay can be described thus: Fluorescent pyruvate kinase-lactate dehydrogenase (LDH) coupled secondary assay. Type of assay: biochemical. The note with it: tables. On the procedure:
Fluorescent Pyruvate Kinase-Lactate Dehydrogenase Coupled Secondary Assay.
Plates were immediately placed in ViewLux (Perkin Elmer) and NADH fluorescence was determined at 30 second exposure intervals for between 3 and 6 minutes. Data were normalized to the uninhibited and EC100 activation using known activators such as fructose-1,6-bis-phosphate. […] Data was collected on the Perkin Elmer Viewlux.

Protein sequences, listed by entry. Tags and fused reporters are not part of them.
UniProt P14618, whole entry: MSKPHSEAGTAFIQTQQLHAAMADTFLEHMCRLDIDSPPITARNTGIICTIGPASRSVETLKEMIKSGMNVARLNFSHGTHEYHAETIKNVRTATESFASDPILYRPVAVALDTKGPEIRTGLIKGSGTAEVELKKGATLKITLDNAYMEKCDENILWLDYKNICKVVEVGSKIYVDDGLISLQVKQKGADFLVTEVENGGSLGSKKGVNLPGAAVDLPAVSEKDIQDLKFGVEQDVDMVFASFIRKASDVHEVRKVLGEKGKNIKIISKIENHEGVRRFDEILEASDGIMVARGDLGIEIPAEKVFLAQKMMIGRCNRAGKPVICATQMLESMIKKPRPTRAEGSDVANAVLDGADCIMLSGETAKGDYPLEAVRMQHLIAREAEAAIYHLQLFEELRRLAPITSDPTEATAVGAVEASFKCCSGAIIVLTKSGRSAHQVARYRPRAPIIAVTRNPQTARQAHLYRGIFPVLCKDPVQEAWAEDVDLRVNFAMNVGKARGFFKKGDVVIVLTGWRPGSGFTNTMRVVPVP

As a reminder, the AC50 is the concentration at which the activity in the assay is half-maximal.

In the case of `Nc1cccc(S(=O)(=O)N2CCCN(S(=O)(=O)c3ccc4c(c3)OCCO4)CC2)c1` [Compound 124], the AC50 turned out to be 91.9 nM.

Source of the values: US8937067B2, “Activators of human pyruvate kinase” (The United States of America, as represented by the …, priority 2008, dated 2015).
